What was measured:
BTK protein = BTK protein (Homo sapiens, UniProt Q06187); assay: Western blot assay for degradation of BTK protein in Jeko-1 cells; details: read-out: Degradation of BTK activity DC50, 24 hours of drug treatment, GAPDH internal reference
Experimental: The Jeko-1 cell line was cultured in RPMI-1640 medium containing 20% fetal bovine serum in an incubator at 37° C., 5% CO2, and saturated humidity. After the cells grew to the logarithmic growth phase, 5×10^6 cells per well were seeded in a 6-well culture plate, and a DMSO control group and a compound test group were set.
(§1) After 24 hours of drug treatment, the cells were collected, added pre-cooled cell lysate, and lysed on ice for 45 min. After the cells were completely lysed, they were centrifuged, and the supernatant was taken and stored in an ice bath. The protein concentration was determined by Bradford protein concentration assay kit (detergent compatible type), and protein samples were prepared. After the proteins were separated by SDS-PAGE gel electrophoresis, they were transferred to PVDF membranes by wet method and blocked with 5% BSA solution at room temperature for 1 h. Diluted rabbit anti-human BTK and GAPDH were added according to the experimental requirements, and incubated overnight at 4° C. After washing the membrane with TBST, horseradish peroxidase-labeled goat anti-rabbit IgG secondary antibody dilution was added and incubated at room temperature for 1 h. After washing the membrane with TBST, the ECL luminescent solution was added in the gel imager for development and imaging. […]

By UniProt entry, the sequences of proteins in these tests, tags left out. Where a name states a change or a piece, a line headed by the entry shows the natural chain unless it says otherwise.
UniProt Q06187, whole entry: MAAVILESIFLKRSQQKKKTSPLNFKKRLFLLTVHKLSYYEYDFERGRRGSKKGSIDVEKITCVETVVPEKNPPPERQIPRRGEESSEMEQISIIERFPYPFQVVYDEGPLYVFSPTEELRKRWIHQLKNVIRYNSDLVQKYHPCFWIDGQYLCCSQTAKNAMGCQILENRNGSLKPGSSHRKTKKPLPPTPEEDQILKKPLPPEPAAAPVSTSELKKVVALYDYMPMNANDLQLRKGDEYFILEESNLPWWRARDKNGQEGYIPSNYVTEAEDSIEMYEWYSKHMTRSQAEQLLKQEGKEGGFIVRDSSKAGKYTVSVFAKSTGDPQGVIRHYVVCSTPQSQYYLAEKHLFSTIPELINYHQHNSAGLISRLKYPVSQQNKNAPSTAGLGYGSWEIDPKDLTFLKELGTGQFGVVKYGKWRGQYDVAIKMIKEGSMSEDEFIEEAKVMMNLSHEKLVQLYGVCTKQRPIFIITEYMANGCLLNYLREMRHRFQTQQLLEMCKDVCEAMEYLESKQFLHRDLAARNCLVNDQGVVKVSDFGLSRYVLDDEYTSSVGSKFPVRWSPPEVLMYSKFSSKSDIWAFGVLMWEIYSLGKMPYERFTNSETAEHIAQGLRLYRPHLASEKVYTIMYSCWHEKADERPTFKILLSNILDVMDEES
UniProt Q06187, whole entry C481S: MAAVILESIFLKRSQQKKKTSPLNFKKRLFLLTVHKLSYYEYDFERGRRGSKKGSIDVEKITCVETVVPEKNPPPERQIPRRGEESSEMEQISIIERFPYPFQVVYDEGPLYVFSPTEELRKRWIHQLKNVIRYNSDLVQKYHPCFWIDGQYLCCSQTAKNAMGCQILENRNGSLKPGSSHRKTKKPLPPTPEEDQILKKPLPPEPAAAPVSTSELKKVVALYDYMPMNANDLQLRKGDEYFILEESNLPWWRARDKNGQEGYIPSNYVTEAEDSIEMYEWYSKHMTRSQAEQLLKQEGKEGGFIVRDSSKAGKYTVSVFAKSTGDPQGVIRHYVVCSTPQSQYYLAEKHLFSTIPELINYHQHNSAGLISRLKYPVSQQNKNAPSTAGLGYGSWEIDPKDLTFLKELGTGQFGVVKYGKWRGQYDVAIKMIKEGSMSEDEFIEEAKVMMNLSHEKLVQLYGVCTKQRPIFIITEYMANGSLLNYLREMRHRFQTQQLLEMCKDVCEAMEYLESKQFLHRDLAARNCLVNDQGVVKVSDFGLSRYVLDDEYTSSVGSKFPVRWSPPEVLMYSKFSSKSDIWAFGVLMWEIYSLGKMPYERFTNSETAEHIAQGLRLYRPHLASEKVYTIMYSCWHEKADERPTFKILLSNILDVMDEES

Caco-2 cells = assay: Caco-2 membrane permeability and efflux test; details: for Papp Sample-01 / Papp Sample-02 / Papp Mean: Caco-2 monolayer, 37° C., 90 minutes; for Papp Mean: mean of two samples
Experimental: • 1) Caco-2 cells in the logarithmic growth phase were taken, digested and centrifuged and the cell concentration was adjusted to 4×10^5 cells/mL with MEM complete medium. • 2) 0.5 mL of cell suspension was added to the apical side (AP side) and 1.5 mL MEM cell complete medium was added to the basal side (BL side) of the Transwell plate, respectively. • 3) Culture in a cell constant temperature incubator, change the culture medium every two days, and change the medium every day after one week of culture. • 4) After about 21 days, the resistance value of the formed continuous monolayer film is greater than 100 Ω·cm^2, and the transport experiment is carried out within 3-5 days. • 5) The test compound solution was added to the AP side as the donor solution (Donor), and 1.5 mL of the receiver solution (Receiver) was added to the basal side (BL side). After the culture plate was placed in an incubator at 37° C. for 90 minutes, the AP side was separated from the BL side to terminate the reaction. • 6) Donor or Receiver samples were diluted with 0.4% DMSO in HBSS, and then mixed with acetonitrile. The LC conditions were as follows: mobile phase A: H2O—0.025% FA-1 mM NH4OAC, B: MeOH-0.025% FA-1 mM NH4OAC. Column: ACQUITY UPLC BEH_C18 ([…], 1.7 μm). Flow rate 0.60 mL/min. Gradient: 0.2 min 2% B, 0.6 min 98% B, 1.3 min 98% B, 1.31 min 2% B, 1.8 min stop. • 7) Calculation formula: Papp=(VA/(area×time))×([drug]receiver/([drug]donor)×dilution factor)
where VA is the volume in the receiving chamber, area is the surface area of the membrane, and time is the total transport time in seconds.
Drug molecules cross the single cell layer or via the cell gap from the apical side (AP side) to the basolateral side (BL side) of the Caco-2 monolayer are A to B, and vice versa are B to A. The efflux ratio: Papp(B−A)/Papp(A−B).

BTK-C481S mutant protein = BTK-C481S mutant protein (Homo sapiens, UniProt Q06187, C481S); assay: Western blot assay for degradation of BTK-C481S mutant protein in TMD8 (BTK-C481S) cells; details: read-out: Degradation BTK-C481S activity DC50, 24 hours of drug treatment, GAPDH internal reference
Experimental: The TMD8 (BTK-C481S) mutant cell line was cultured in RPMI-1640 medium containing 20% fetal bovine serum in an incubator at 37° C., 5% CO2, and saturated humidity. After the cells grew to the logarithmic growth phase, 5×10^6 cells per well were seeded in a 6-well culture plate, and a DMSO control group and a compound test group were set.
as §1

## Nc1ncnc2c1c(-c1ccc(Oc3ccccc3)cc1)nn2C1CCN(CCOCCOCCOc2ccc3c(c2)CN(C2CCC(=O)NC2=O)C3=O)CC1 (stereo not drawn)
BTK protein
  DC50: 12.3 nM
Caco-2 cells; A-B
  Papp Sample-01: 3.18 10^−6 cm · s^−1
  Papp Sample-02: 3.46 10^−6 cm · s^−1
  Papp Mean: 3.32 10^−6 cm · s^−1
Caco-2 cells; B-A
  Papp Sample-01: 25.07 10^−6 cm · s^−1
  Papp Sample-02: 33.04 10^−6 cm · s^−1
  Papp Mean: 29.05 10^−6 cm · s^−1
Caco-2 cells; efflux ratio, Caco-2
  Papp(B-A)/Papp(A-B): 8.75
BTK-C481S mutant protein
  DC50: 17 nM

Source: patent US12624042B2, “Compound for targeted degradation of BTK and anti-tumour use thereof” (SHANGHAI MEIZER PHARMACEUTICALS CO., LTD., priority 2020, dated 2026)
